# Source: US7935722B2 (Eli Lilly and Company, priority 2005, dated 2011)
# Amino acid sequences for entries named in this document (tags omitted). A change or cut given only in a name is not applied to a line headed by its entry.
# UniProt P10275: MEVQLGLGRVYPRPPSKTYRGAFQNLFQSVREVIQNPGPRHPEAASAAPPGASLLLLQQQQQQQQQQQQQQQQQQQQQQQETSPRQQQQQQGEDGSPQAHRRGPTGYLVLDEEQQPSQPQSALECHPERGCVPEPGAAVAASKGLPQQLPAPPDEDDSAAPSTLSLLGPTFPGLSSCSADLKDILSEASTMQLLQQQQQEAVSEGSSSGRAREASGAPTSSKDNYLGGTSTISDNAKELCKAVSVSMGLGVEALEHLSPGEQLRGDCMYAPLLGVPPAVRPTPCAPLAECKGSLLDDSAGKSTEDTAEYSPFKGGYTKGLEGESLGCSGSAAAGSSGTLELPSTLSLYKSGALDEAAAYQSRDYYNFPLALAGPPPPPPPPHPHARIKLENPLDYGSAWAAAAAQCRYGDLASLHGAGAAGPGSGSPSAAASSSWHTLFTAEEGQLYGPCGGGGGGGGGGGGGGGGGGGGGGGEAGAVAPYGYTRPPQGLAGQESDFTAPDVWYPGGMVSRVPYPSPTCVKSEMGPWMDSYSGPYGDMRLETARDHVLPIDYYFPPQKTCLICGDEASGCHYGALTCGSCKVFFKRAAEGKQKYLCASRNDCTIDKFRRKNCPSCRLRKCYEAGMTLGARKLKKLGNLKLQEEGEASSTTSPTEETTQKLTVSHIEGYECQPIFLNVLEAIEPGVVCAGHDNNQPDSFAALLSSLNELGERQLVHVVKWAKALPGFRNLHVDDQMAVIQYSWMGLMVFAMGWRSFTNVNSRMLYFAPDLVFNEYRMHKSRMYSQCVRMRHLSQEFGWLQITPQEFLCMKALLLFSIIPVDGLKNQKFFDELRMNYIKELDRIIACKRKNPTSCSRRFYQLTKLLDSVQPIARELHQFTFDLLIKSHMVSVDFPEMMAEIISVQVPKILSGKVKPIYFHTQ
# Tests used:
# [1] = molecular target: human AR (androgen receptor) (Homo sapiens, UniProt P10275); assay: Steroid hormone nuclear receptor binding assay, AR binding; settings: read-out: AR binding Ki; average of n trials
# [2] = molecular target: human androgen receptor (AR) (Homo sapiens, UniProt P10275); assay: C2C12 AR/ARE reporter assay; format: cell-based; settings: read-out: C2C12 EC50, average of n trials
SMILES,Ki [1],EC50 [2]
CC(C)C(=O)NC1CCc2c(c3cc(F)ccc3n2Cc2ccccc2F)C1 (centres unmarked) [Example 4],36.6 nM,
COc1cccc(Cn2c3c(c4cc(F)ccc42)CC(NC(=O)C(C)C)CC3)c1 (centres unmarked) [Example 10],31.9 nM,193 nM
CC(C)C(=O)NC1CCc2c(c3cc(Cl)ccc3n2Cc2ccccc2)C1 (centres unmarked) [Example 16],1.9 nM,5.5 nM
CC(C)C(=O)NC1CCc2c(c3cc(Cl)ccc3n2Cc2cccc(F)c2)C1 (centres unmarked) [Example 21],2 nM,20.1 nM
COc1cccc(Cn2c3c(c4cc(Cl)ccc42)CC(NC(=O)C(C)C)CC3)c1 (centres unmarked) [Example 23],4.3 nM,157 nM
CC(C)C(=O)NC1CCc2c(c3cc(Cl)ccc3n2Cc2cccc(C#N)c2)C1 (centres unmarked) [Example 24],8.2 nM,305 nM
CC(C)C(=O)NC1CCc2c(c3cc(Cl)ccc3n2Cc2ccc(F)cc2)C1 (centres unmarked) [Example 25],6 nM,121 nM
CC(C)C(=O)NC1CCc2c(c3cc(Cl)ccc3n2Cc2cc(F)cc(F)c2)C1 (centres unmarked) [Example 29],2.4 nM,2.7 nM
CC(C)C(=O)NC1CCc2c(c3cc(Br)ccc3n2Cc2ccccc2)C1 (centres unmarked) [Example 30],2.1 nM,3.1 nM
CC(C)C(=O)NC1CCc2c(c3cc(Br)ccc3n2Cc2ccccc2Cl)C1 (centres unmarked) [Example 32],10.3 nM,53.3 nM
COc1ccccc1Cn1c2c(c3cc(Br)ccc31)CC(NC(=O)C(C)C)CC2 (centres unmarked) [Example 34],24.9 nM,185 nM
Cc1ccc2c(c1)c1c(n2Cc2cccc(F)c2)CCC(NC(=O)C(C)C)C1 (centres unmarked) [Example 47],12.1 nM,24.1 nM
"CC(C)C(=O)NC1CCc2c(c3cc(C#N)ccc3n2Cc2cccc(F)c2)C1 (centres unmarked) [Example 51, N-(6-cyano-9-(3-fluorobenzyl)-2,3,4,9-tetrahydro-1H-carbazol-3-yl)isobutyramide]",1.5 nM,0.6 nM
CC(C)C(=O)NC1CCc2c(c3ccc(Cl)cc3n2Cc2cccc(F)c2)C1 (centres unmarked) [Example 56],3.8 nM,54 nM
CC(C)C(=O)NC1CCc2c(c3cccc(F)c3n2Cc2cccc(F)c2)C1 (centres unmarked) [Example 58],7.2 nM,258 nM
COc1ccc2c(c1)c1c(n2Cc2ccccc2OC)CCC(NC(=O)C(C)C)C1 (centres unmarked) [Example 72],153 nM,686 nM
COc1ccc(Cn2c3c(c4cc(OC)ccc42)CC(NC(=O)C(C)C)CC3)cc1 (centres unmarked) [Example 74],859 nM,764 nM
COc1ccc2c(c1)c1c(n2Cc2ccc(F)cc2)CCC(NC(=O)C(C)C)C1 (centres unmarked) [Example 80],98 nM,108 nM
COC(=O)c1cccc(Cn2c3c(c4cc(Cl)ccc42)CC(NC(=O)C(C)C)CC3)c1 (centres unmarked) [Example 84],19.7 nM,
"CC(C)C(=O)NC1CCc2c(c3cc(C#N)ccc3n2Cc2cccc([N+](=O)[O-])c2)C1 (centres unmarked) [Example 88, N-[6-cyano-9-(3-nitro-benzyl)2,3,4,9-tetrahydro-1H-carbazol-3-yl]-isobutyramide]",4.4 nM,24.3 nM
